According to US4695545A, “Culture and process for producing A41030 antibiotics” (Eli Lilly and Company, priority 1984, dated 1987):

Experiments:
Staphylococcus aureus = assay: MIC aerobic bacteria, standard agar-dilution assay; format: cell-based; details: Staphylococcus aureus S13E, 24 hours
[1] = tested on: Peptostreptococcus intermedius; assay: MIC anaerobic bacteria, agar-dilution; format: cell-based; details: Peptostreptococcus intermedius 1264

Substance: A41030 factor C
- MIC (Staphylococcus aureus): 0.5 µg/mL
- MIC [1]: 0.5 µg/mL

Substance: A41030 factor G
- MIC (Staphylococcus aureus): 1 µg/mL
